# Assay results taken from patent US20090104119A1, “Dendrimer Based Compositions And Methods Of Using The Same” (priority 2004, published 2009).
# Test system: KB tumor
# Experiment: Biodistribution of fluorescent dendrimer conjugates in tumor (confocal microscopy, flow cytometry)
# Assay type: in vivo, mice
# Settings: 15 hours after i.v. injection, compared with nontargeted dendrimer
# Experimental: Biodistribution of fluorescent dendrimer conjugates. […] Flow cytometry analysis was done with single-cell suspension isolated from tumor. Tumor was crushed, cell suspension filtered through 70 μm nylon mesh (Becton Dickinson, Franklin Lakes, N.J.), and washed with in PBS. Samples were analyzed using an EPICS XL flow cytometer (Coulter, Miami, Fla.). As determined by prior propidium iodine staining, only live cells were gated for analysis. Data were reported as the mean channel fluorescence of the cell population.
# For confocal microscope imaging, tissue was dissected, embedded in OCT, and frozen in 2-methyl-butane in a dry ice bath. Sections (15 μm) were cut on a cryostat, thaw mounted onto slides, and stored at −80° C. until stained. After staining, the slides were fixed in 4% paraformaldehyde, rinsed in phosphate buffer (0.1 mol/L; pH 7.2), and mounted in Prolong. The images were acquired using a Zeiss 510 metalaser scanning confocal microscope equipped with a ×40 Plan-Apo 1.2 numerical aperture (water immersion) objective with a correction collar. The confocal image was recorded as 512×512×48 pixels with a scale of 0.45×0.45×0.37 μm per pixel. Each image cube was optically cut into 48 sections, and the sections that cut through the nucleus and cytoplasm were presented.
# Targeting and internalization of fluorescent dendrimer conjugate. […]
substance,measurement,value
G5-(Ac)82-(6-TAMRA)3-(FA)4 [G5-6T-FA],"fluorescent cells in tumor tissue, confocal",significant number of fluorescent cells
